Only a part is listed here, and it is no random draw. Activity calls are given as the source filed them.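 Rule for the calls: active = activation above the mean of all tested compounds plus 3 SD, set per screening campaign (cut at about 17% in these data); inactive = the rest.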
What follows are molecules tested against Insulin-degrading enzyme (Homo sapiens) (UniProt P14735) (assay: human IDE activators in live cells, primary screen, fluorescence polarization, HEK cells, FAbeta-B substrate (AID 493087)). Conditions: FAbeta-B cleavage, at 5.96 µM, hits give high values, 0% vehicle, 100% cell-free pure enzyme wells.

By UniProt entry, the sequences of proteins in these tests, tags left out.
UniProt P14735, whole entry: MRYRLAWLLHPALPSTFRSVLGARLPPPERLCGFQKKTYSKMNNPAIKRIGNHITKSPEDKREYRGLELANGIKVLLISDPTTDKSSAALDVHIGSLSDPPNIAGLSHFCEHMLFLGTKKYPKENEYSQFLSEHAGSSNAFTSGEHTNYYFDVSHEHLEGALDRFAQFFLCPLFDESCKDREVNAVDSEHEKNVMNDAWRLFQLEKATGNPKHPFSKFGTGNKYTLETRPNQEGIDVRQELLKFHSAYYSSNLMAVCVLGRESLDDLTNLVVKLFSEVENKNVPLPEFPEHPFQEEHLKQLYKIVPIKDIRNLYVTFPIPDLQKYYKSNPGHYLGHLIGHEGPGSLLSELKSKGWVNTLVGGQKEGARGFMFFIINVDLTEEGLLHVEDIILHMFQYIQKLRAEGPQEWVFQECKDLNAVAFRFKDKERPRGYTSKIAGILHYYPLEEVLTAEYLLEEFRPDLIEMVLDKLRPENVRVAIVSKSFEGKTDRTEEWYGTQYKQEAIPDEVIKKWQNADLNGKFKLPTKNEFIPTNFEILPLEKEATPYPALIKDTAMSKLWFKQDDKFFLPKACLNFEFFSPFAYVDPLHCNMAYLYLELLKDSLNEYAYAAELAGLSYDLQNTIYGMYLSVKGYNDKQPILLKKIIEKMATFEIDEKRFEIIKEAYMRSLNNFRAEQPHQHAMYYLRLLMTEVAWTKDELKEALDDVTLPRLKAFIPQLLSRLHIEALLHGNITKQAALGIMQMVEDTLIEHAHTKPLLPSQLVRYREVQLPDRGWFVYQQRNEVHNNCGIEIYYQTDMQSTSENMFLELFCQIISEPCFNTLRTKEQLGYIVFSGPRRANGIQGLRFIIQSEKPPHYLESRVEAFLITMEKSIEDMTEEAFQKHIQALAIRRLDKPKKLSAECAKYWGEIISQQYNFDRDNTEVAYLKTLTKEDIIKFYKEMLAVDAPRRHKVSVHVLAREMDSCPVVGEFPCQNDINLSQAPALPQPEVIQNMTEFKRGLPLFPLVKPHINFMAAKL

Structure (SMILES)	activation
N#CC1(Nc2ccccc2)CCN(Cc2ccccc2)CC1	inactive: 1.53%
O=C(OC1CN2CCC1CC2)C1c2ccccc2Oc2ccccc21 (stereo not given)	inactive: 1.67%
COc1ccc(Cl)cc1C(=O)NCC1(N2CCOCC2)CCCCC1	inactive: -0.78%
CCOC(=O)N1CCC(Nc2ccc(OC)cc2)CC1	inactive: 2.68%
O=C(NCC1(N2CCCCC2)CCCCC1)c1ccc(Cl)nc1	inactive: -2.61%
Cc1cc(C)cc(N(C(=O)c2ccccc2)C2CCN(C(=O)OC(C)(C)C)CC2)c1	inactive: -4.65%
O=C(NCC1(N2CCOCC2)CCCCC1)c1cc2ccccc2o1	inactive: -0.11%
CSc1ccccc1C(=O)NCC1(N2CCCCC2)CCCCC1	inactive: 4.13%
Cc1cccc(NC2(C#N)CCN(Cc3ccccc3)CC2)c1	inactive: 4.83%
COc1ccc(C(=O)NCC2(N3CCCCC3)CCCCC2)cc1	inactive: -0.09%
COc1ccc(C(=O)NCC2(N3CCCCC3)CCCCC2)c(OC)c1OC	inactive: 2.07%
CC(C)(C)OC(=O)N1CCC(N(C(=O)c2ccccc2)c2ccc(F)cc2)CC1	inactive: 0.34%
O=C(NCC1(N2CCCCC2)CCCCC1)c1ccc(=O)[nH]c1	inactive: -5.07%
O=C(NCC1(N2CCCCC2)CCCCC1)c1cccs1	inactive: 4.39%
CN1CCC(Nc2ccc(Cl)cc2)CC1	inactive: 1.51%
COc1cccc(C(=O)N(c2cc(C)cc(C)c2)C2CCN(C(=O)OC(C)(C)C)CC2)c1	inactive: -0.42%
COc1cc(OC)cc(C(=O)NCC2(N3CCOCC3)CCCCC2)c1	inactive: 0.98%
CCC(CO)(C(=O)OC1CN2CCC1CC2)c1ccccc1 (stereo not given)	inactive: 4.91%
CC(C)(C)OC(=O)N1CCC(Nc2ccccc2)CC1	inactive: 1.38%
O=C(O)C1(Nc2ccccc2)CCN(Cc2ccccc2)CC1	inactive: 0.63%
CCCOc1ccc(C(=O)NCC2(N(C)C)CCCCC2)cc1	inactive: 2.58%
CCOc1ncccc1C(=O)NCC1(N2CCOCC2)CCCCC1	inactive: 2.36%
CN1CCC(Nc2ccc(F)c(Cl)c2)CC1	inactive: -6.09%

Structure (SMILES)	activation
O=C(NCC1(N2CCCCC2)CCCCC1)c1ccco1	inactive: -1.02%
CN(C)c1ccc(C(=O)NCC2(N3CCCCC3)CCCCC2)cc1	inactive: 1.86%
Cn1c(=O)[nH]cc(N(CCCl)CCCl)c1=O	inactive: 2.16%
Cc1ccccc1NC1(C#N)CCN(Cc2ccccc2)CC1	inactive: 2.73%
CCN1CCC(Nc2cccc(F)c2)CC1	inactive: -5.45%
Cc1ccc(C(=O)NCC2(N3CCCCC3)CCCCC2)o1	inactive: 3.3%
Fc1ccccc1NC1CCN(Cc2ccccc2)CC1	inactive: -2.67%
Cc1ccc(NC2(C#N)CCN(Cc3ccccc3)CC2)cc1	inactive: 5.52%
CC(=O)N(c1ccccc1)C1CCNCC1	inactive: 2.47%
COc1cc(OC)cc(C(=O)NCC2(N3CCCCC3)CCCCC2)c1	inactive: 3.31%
CN(C)C1(CNC(=O)c2cccc(C#N)c2)CCCCC1	inactive: 4.39%
c1ccc(CN2CCC(Nc3ccccc3)CC2)cc1	inactive: 1.97%
CCCN1CCC(Nc2cc(OC)cc(OC)c2)CC1	inactive: 10.1%
Cc1cc(N(CCCl)CCCl)ccc1C=O	inactive: 1.85%
N#Cc1ccc(C(=O)NCC2(N3CCCCC3)CCCCC2)cc1	inactive: 3.64%
CC(C)(C)OC(=O)N1CCC(N(C(=O)c2ccccc2)c2ccc(Cl)cc2)CC1	inactive: 0.43%
O=C(OC1CN2CCC1CC2)C1c2ccccc2C=Cc2ccccc21 (stereo not given)	inactive: -3.24%
CCOC(=O)N1CCC(Nc2ccc(C)cc2)CC1	inactive: 7.04%
N/C(=N\O)c1c(N)no[n+]1[O-]	inactive: 0.26%
COc1ccc(C(=O)NCC2(N3CCOCC3)CCCCC2)cc1OC	inactive: 2.69%
COc1cc(C(=O)NCC2(N3CCOCC3)CCCCC2)cc(OC)c1C	inactive: 1.07%
O=C(NCC1(N2CCOCC2)CCCCC1)c1cc(Br)ccc1Cl	inactive: 2.89%

— PubChem BioAssay AID493087 (The Scripps Research Institute Molecular Screening Center, 2011)
